# Values of other authors, collected in US20240115578A1, “DRUG COMPOSITION FOR TREATING PEDIATRIC CANCERS” (CHUGAI SEIYAKU KABUSHIKI KAISHA, priority 2021, published 2024).
# System: ALK fusion gene-positive NSCLC
# Details: phase III, Japanese adults; cited from earlier work
compound,measurement,value
"CCc1cc2c(cc1N1CCC(N3CCOCC3)CC1)C(C)(C)c1[nH]c3cc(C#N)ccc3c1C2=O [alectinib, 9-ethyl-6,6-dimethyl-8-(4-morpholin-4-yl-piperidin-1-yl)-11-oxo-6,11-dihydro-5H-benzo[b]carbazole-3-carbonitrile]",Safety and efficacy outcomes versus crizotinib,better outcomes than crizotinib in terms of both safety and efficacy
